In IntAct's records for PubMed 35512704:

B1: RAC-alpha serine/threonine-protein kinase (Homo sapiens), P31749 (parent)
chain: MSDVAIVKEGWLHKRGEYIKTWRPRYFLLKNDGTFIGYKERPQDVDQREAPLNNFSVAQCQLMKTERPRPNTFIIRCLQWTTVIERTFHVETPEEREEWTTAIQTVADGLKKQEEEEMDFRSGSPSDNSGAEEMEVSLAKPKHRVTMNEFEYLKLLGKGTFGKVILVKEKATGRYYAMKILKKEVIVAKDEVAHTLTENRVLQNSRHPFLTALKYSFQTHDRLCFVMEYANGGELFFHLSRERVFSEDRARFYGAEIVSALDYLHSEKNVVYRDLKLENLMLDKDGHIKITDFGLCKEGIKDGATMKTFCGTPEYLAPEVLEDNDYGRAVDWWGLGVVMYEMMCGRLPFYNQDHEKLFELILMEEIRFPRTLGPEAKSLLSGLLKKDPKQRLGGGSEDAKEIMQHRFFAGIVWQHVYEKKLSPPFKPQVTSETDTRYFDEEFTAQMITITPPDQDDSMECVDSERRPHFPQFSYSASGTA

Variants of: B1
Details: with atm_human ATM

Row | Variant | effect of a mutation on the interaction
1 | E17K | causing an interaction

Variants of: B1
Details: with ajuba_human AJUBA

Row | Variant | effect of a mutation on the interaction
2 | E17K | with no effect

Variants of: B1
Details: with alk_human ALK

Row | Variant | effect of a mutation on the interaction
3 | E17K | with no effect

Variants of: B1
Details: with aph1a_human APH1A

Row | Variant | effect of a mutation on the interaction
4 | E17K | with no effect

Variants of: B1
Details: with asxl1_human ASXL1, Q8IXJ9

Row | Variant | effect of a mutation on the interaction
5 | E17K | with no effect

Variants of: B1
Details: with bakor_human ATG14

Row | Variant | effect of a mutation on the interaction
6 | E17K | with no effect

Variants of: B1
Details: with atpb_human ATP5F1B

Row | Variant | effect of a mutation on the interaction
7 | E17K | with no effect

Variants of: B1
Details: with ufo_human AXL

Row | Variant | effect of a mutation on the interaction
8 | E17K | with no effect

Variants of: B1
Details: with za2g_human AZGP1, P25311

Row | Variant | effect of a mutation on the interaction
9 | E17K | with no effect

Variants of: B1
Details: with b2mg_human B2M

Row | Variant | effect of a mutation on the interaction
10 | E17K | with no effect

Variants of: B1
Details: with bap1_human BAP1, Q92560

Row | Variant | effect of a mutation on the interaction
11 | E17K | with no effect

Variants of: B1
Details: with b2cl1_human BCL2L1, Q07817

Row | Variant | effect of a mutation on the interaction
12 | E17K | with no effect

Variants of: B1
Details: with birc2_human BIRC2

Row | Variant | effect of a mutation on the interaction
13 | E17K | with no effect

Variants of: B1
Details: with braf_human BRAF

Row | Variant | effect of a mutation on the interaction
14 | E17K | with no effect

Variants of: B1
Details: with baba2_human BABAM2

Row | Variant | effect of a mutation on the interaction
15 | E17K | with no effect

Variants of: B1
Details: with pebb_human CBFB

Row | Variant | effect of a mutation on the interaction
16 | E17K | with no effect

Variants of: B1
Details: with ccnd1_human CCND1

Row | Variant | effect of a mutation on the interaction
17 | E17K | with no effect

Variants of: B1
Details: with ccnd2_human CCND2, P30279

Row | Variant | effect of a mutation on the interaction
18 | E17K | with no effect

Variants of: B1
Details: with ccne1_human CCNE1

Row | Variant | effect of a mutation on the interaction
19 | E17K | with no effect

Variants of: B1
Details: with cd44_human CD44, P16070

Row | Variant | effect of a mutation on the interaction
20 | E17K | with no effect

Variants of: B1
Details: with cd79a_human CD79A

Row | Variant | effect of a mutation on the interaction
21 | E17K | with no effect

Variants of: B1
Details: with cd79b_human CD79B

Row | Variant | effect of a mutation on the interaction
22 | E17K | with no effect

Variants of: B1
Details: with cdc27_human CDC27

Row | Variant | effect of a mutation on the interaction
23 | E17K | with no effect

Variants of: B1
Details: with cdc42_human CDC42, P60953

Row | Variant | effect of a mutation on the interaction
24 | E17K | with no effect

Variants of: B1
Details: with cdc73_human CDC73

Row | Variant | effect of a mutation on the interaction
25 | E17K | with no effect

Variants of: B1
Details: with cdk4_human CDK4, P11802

Row | Variant | effect of a mutation on the interaction
26 | E17K | with no effect

Variants of: B1
Details: with cdn1a_human CDKN1A

Row | Variant | effect of a mutation on the interaction
27 | E17K | with no effect

Variants of: B1
Details: with cdn1b_human CDKN1B

Row | Variant | effect of a mutation on the interaction
28 | E17K | with no effect

Variants of: B1
Details: with cebpa_human CEBPA

Row | Variant | effect of a mutation on the interaction
29 | E17K | with no effect

Variants of: B1
Details: with chk2_human CHEK2

Row | Variant | effect of a mutation on the interaction
30 | E17K | with no effect

Variants of: B1
Details: with csf1r_human CSF1R

Row | Variant | effect of a mutation on the interaction
31 | E17K | with no effect

Variants of: B1
Details: with ctla4_human CTLA4, P16410

Row | Variant | effect of a mutation on the interaction
32 | E17K | with no effect

Variants of: B1
Details: with cul3_human CUL3, Q13618

Row | Variant | effect of a mutation on the interaction
33 | E17K | with no effect

Variants of: B1
Details: with cul4b_human CUL4B

Row | Variant | effect of a mutation on the interaction
34 | E17K | with no effect

Variants of: B1
Details: with daxx_human DAXX

Row | Variant | effect of a mutation on the interaction
35 | E17K | with no effect

Variants of: B1
Details: with ddx5_human DDX5, P17844

Row | Variant | effect of a mutation on the interaction
36 | E17K | with no effect

Variants of: B1
Details: with dicer_human DICER1, Q9UPY3

Row | Variant | effect of a mutation on the interaction
37 | E17K | with no effect
